Experiments:
Format in all cases: biochemical
Conditions in all cases: enethiols 6 assayed as sodium salts; 10 min incubation
[1] = target: T1, NDM-1 (Klebsiella pneumoniae, UniProt C7C422); experiment: NDM-1 inhibition, fluorogenic cephalosporin (FC5) hydrolysis
T1 construct: made in house
Procedure: (§1) Inhibition analyses against bacterial MBLs and SBLs were performed as described previously.[22], [24], [26] Residual enzyme activities were determined for a range of inhibitor concentrations. Non-linear regression fitting of IC50 curves was carried out using a three-parameter dose–response curve in GraphPad Prism. Errors in IC50 values are expressed as: σ(logIC50)/logIC50×IC50
(§2) We first screened the inhibitors against a representative set of presently clinically important and other MBLs[22], comprising both Class B1 enzymes (NDM-1, New Delhi MBL-1; VIM-2, Verona integron–encoded MBL-2; BcII, Bacillus cereus II MBL; SPM-1, São Paulo MBL-1; IMP-1, imipenemase MBL-1) and the Class B2 MBL CphA (carbapenem hydrolysing MBL from Aeromonas hydrophila).[22] The latter MBL (CphA) only utilises one active site Zn(II) ion in catalysis, whilst the others normally use two Zn(II) ions.
Figure S4: IC50 curves for NDM-1 inhibition time courses. Residual activities were calculated from the
(§3) initial rate of FC5 hydrolysis after incubation of the enzyme with the inhibitor for 10 minutes. […]

Amino acid sequences for entries named in this document (tags omitted). Residues count along the entry.
UniProt C7C422, 29-270, looked up, species assumed: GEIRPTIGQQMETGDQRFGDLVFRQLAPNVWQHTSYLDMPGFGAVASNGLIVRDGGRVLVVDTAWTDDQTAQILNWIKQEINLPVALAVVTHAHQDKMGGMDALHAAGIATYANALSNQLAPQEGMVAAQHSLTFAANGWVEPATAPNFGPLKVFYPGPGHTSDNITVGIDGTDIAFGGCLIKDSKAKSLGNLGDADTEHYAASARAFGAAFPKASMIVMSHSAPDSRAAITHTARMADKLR
UniProt P04190, 31-257: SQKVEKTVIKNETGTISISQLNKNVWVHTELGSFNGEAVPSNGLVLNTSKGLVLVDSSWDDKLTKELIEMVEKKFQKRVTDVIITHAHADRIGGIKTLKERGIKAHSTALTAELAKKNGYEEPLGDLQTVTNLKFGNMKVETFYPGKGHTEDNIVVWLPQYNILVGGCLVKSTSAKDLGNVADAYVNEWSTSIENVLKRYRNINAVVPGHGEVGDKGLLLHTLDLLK
UniProt P52699, 19-246, looked up, species assumed: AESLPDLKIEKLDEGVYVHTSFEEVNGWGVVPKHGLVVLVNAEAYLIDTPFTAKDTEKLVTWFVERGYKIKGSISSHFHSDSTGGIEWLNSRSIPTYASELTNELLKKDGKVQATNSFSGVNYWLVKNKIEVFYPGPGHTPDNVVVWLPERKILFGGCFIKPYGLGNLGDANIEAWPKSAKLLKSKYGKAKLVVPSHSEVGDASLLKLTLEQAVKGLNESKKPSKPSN
UniProt Q8G9Q0, entry or part of it: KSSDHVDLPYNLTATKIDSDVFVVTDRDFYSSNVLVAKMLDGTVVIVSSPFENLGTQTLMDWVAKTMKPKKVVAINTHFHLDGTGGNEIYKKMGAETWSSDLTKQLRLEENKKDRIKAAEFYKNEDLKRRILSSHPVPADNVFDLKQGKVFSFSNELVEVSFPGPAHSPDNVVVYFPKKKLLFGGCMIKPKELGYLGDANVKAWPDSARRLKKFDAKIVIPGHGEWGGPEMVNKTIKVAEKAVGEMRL

[2] = target: T2, BcII (Bacillus cereus, UniProt P04190)
T2 construct: made in house
Procedure: as §1
as §2, with “ions. We also screened the inhibitors against a representative panel of SBLs from different classes (TEM-1, Temoneira β-lactamase-1, class A; CTX-M-15, cefotaxime hydrolysing β-lactamase from Munich 15, class A, extended spectrum β-lactamase (ESBL); AmpC E. coli, class C, and OXA-10, oxacillinase-10, class D).” for “ions.”
Figure S2: IC50 curves for BcII inhibition time courses. Residual activities were calculated from the initial
rate of FC5 hydrolysis after incubation of the enzyme with the inhibitor for 10 minutes. […]

[3] = target: T3, IMP-1 (Serratia marcescens, UniProt P52699); experiment: IMP-1 inhibition, fluorogenic cephalosporin (FC5) hydrolysis
T3 construct: made in house
Procedure: as §1
as §2, with “ions. We also screened the inhibitors against a representative panel of SBLs from different classes (TEM-1, Temoneira β-lactamase-1, class A; CTX-M-15, cefotaxime hydrolysing β-lactamase from Munich 15, class A, extended spectrum β-lactamase (ESBL); AmpC E. coli, class C, and OXA-10, oxacillinase-10, class D).” for “ions.”
Figure S3: IC50 curves for IMP-1 inhibition time courses. Residual activities were calculated from the
initial rate of FC5 hydrolysis after incubation of the enzyme with the inhibitor for 10 minutes.

[4] = target: SPM-1 (Pseudomonas aeruginosa, UniProt Q8G9Q0); experiment: SPM-1 inhibition, fluorogenic cephalosporin (FC5) hydrolysis
Procedure: as §1
as §2, with “ions. We also screened the inhibitors against a representative panel of SBLs from different classes (TEM-1, Temoneira β-lactamase-1, class A; CTX-M-15, cefotaxime hydrolysing β-lactamase from Munich 15, class A, extended spectrum β-lactamase (ESBL); AmpC E. coli, class C, and OXA-10, oxacillinase-10, class D).” for “ions.”
Figure S5: IC50 curves for SPM-1 inhibition time courses. Residual activities were calculated from the
as §3

O=C(O)/C(S)=C/c1ccc(Br)cc1 [Compound 6d] was tested, and the IC50 [1] was 6.3 µM.
O=C(O)/C(S)=C/c1ccccc1I [Compound 6i] showed an IC50 [2] of 6.3 µM.
O=C(O)/C(S)=C/c1c2ccccc2cc2ccccc12 [Compound 6r] showed an IC50 [3] of 1.8 ± 0.003 µM and an IC50 [4] of 3.2 ± 0.2 µM.
With CN1CCN(NC(=O)CN2C(=O)S/C(=C\c3c(Cl)ccc(Cl)c3Cl)C2=O)CC1 [Compound 10] the IC50 [3] was 3.2 ± 0.2 µM.
